Experimental data reported in patent US20230056336A1 (KYVERNA THERAPEUTICS, published 2023).

Molecular target: T1, CD25 wild type (WT) CD25-Fc (human, UniProt P01589 22-240)
T1 construct: also called CD25 WT; wild type (WT) mature CD25 polypeptide; not shown: Fc part of CD25-Fc
T1 sequence: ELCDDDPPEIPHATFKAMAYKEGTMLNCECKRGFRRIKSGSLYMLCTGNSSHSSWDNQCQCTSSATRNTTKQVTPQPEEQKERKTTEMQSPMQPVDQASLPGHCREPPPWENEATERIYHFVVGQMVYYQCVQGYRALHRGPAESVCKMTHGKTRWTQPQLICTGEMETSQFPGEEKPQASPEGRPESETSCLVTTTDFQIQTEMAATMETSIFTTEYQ
Assay: BLI; CD25-Fc on anti-hFc biosensor, basiliximab Fab in solution; global 1:1 fit;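 further: biolayer interferometry signals normalized against a reference probe and smoothed with a Savitzky-Golay filter before the global fit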

Kd: 3.45 nM
koff: 0.008 s⁻¹
kon: 2.32e+06 M⁻¹ s⁻¹
B1: basiliximab fab (Fab, V domains shown)
VH: QLQQSGTVLARPGASVKMSCKASGYSFTRYWMHWIKQRPGQGLEWIGAIYPGNSDTSYNQKFEGKAKLTAVTSASTAYMELSSLTHEDSAVYYCSRDYGYYFDFWGQGTTLTVSS
VL: QIVSTQSPAIMSASPGEKVTMTCSASSSRSYMQWYQQKPGTSPKRWIYDTSKLASGVPARFSGSGSGTSYSLTISSMEAEDAATYYCHQRSSYTFGGGTKLEIKR
notes: The assay used a Fab of basiliximab; Chimeric antibody: human IgG1 constant, mouse variable domains
